The results in this text go back to patent US20230414593A1, “EZH2 INHIBITION THERAPIES FOR THE TREATMENT OF ANDROGEN RECEPTOR MUTATED PROSTATE CANCERS” (Constellation Pharmaceuticals, Inc, priority 2020, published 2023).

The subject of the test is mCRPC with pathogenic AR mutations (L702H, T878A, H875Y) or wild-type AR. Briefly: Phase 2 clinical study, progression free survival in second-line mCRPC subjects (NCT03480646). In kind it is in vivo, human. The note with it: subjects with pathogenic AR mutations (L702H, T878A, H875Y) compared with wild-type AR subjects; FIG. 1.

For `CNC(=O)c1ccc(N2C(=S)N(c3ccc(C#N)c(C(F)(F)F)c3)C(=O)C2(C)C)cc1F` [enzalutamide], the “average progression free survival” value is recorded as “lower average progression free survival”.
